The values below are quoted from earlier work in article PMC10531749.

Sequences of proteins named here, by UniProt entry; tags and fusion partners are left off. Residues count along the entry.
UniProt P17931, 114-250: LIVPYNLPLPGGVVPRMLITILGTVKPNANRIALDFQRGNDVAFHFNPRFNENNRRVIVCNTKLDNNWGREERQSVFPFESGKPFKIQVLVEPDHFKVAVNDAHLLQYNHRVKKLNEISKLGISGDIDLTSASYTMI
UniProt P17931, 2-250: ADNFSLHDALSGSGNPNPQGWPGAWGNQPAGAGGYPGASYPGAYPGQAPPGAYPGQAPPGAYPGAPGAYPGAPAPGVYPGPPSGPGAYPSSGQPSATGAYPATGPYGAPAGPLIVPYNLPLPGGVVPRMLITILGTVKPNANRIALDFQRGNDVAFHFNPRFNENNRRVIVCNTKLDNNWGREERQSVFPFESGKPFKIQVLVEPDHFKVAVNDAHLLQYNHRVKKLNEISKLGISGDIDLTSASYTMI
UniProt P48061, 22-89: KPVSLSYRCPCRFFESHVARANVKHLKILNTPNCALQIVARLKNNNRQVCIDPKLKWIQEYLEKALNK

A word on the pKd: it is the Kd on a negative log10 scale, so that one unit is a factor of ten.

pKd: −log10 of the molar value.

Data set [1] has as its target Galectin-3 CRD (Homo sapiens) (UniProt P17931). Description: surface plasmon resonance.
Data set [2] has as its target Galectin-3 (Homo sapiens) (UniProt P17931). Kind of data set: surface plasmon resonance.

Regarding CXCL12 (from UniProt P48061), the pKd in data set [1] is 7.47; in data set [2], 7.10.
